## Antibody variant affinities, Ab-91 heavy chain, assay 2

Values reported by Engelhart et al. 2022, doi:10.1038/s41597-022-01779-4 (FLAb copy).

Target: peptide PDVDLGDISGINAS, taken from heptad repeat 2 (HR2) of SARS-CoV-2 spike.

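The parent was found by panning a naive human phage display library on the peptide. In library AAYL51, one, two or three CDR residues were substituted; doubles and triples were drawn at random. In AlphaSeq, yeast of one mating type display the scFv and yeast of the other type display the target. Binding brings cells together so that they mate, and sequencing counts the barcode pairs among the diploids. The ratio of observed to expected reads was calibrated, replicate by replicate, on BCL2-family standards whose Kd was known from biolayer interferometry. Each pool was mated in three replicate cultures.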

Each scFv is VL, three GGGGS repeats, VH, as in the parent Ab-91, and differs from it in the CDRs of the heavy chain only.
VL: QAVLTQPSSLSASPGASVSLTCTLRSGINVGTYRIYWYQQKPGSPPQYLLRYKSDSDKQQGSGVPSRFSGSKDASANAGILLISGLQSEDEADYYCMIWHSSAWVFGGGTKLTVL
VH: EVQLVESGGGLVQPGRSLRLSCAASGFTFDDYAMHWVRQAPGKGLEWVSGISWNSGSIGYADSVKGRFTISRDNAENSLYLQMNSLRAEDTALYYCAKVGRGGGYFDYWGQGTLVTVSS

Positions count from residue 1 of the parent VH; N54G puts G in place of N.
Every variant below is changed at K65 of the VH (sequential numbering).
Each Kd is an estimate from the mating assay, the geometric mean of the replicates in which the pair was seen; lower is stronger.
An entry "nd" has no value in the source: the pair was not observed among the diploids in any replicate. This suggests poor binding but is not conclusive.

For N54G S63G K65N, the assay gave 11 µM (2 of 3 replicates). Variant K65R G100D Y105W showed nd (0 of 3 replicates). Variant G59K V64M K65N showed 97 µM (3 of 3 replicates). Variant S63L K65A gave 3.8 µM (1 of 3 replicates). For D31Q K65M, the assay gave nd (0 of 3 replicates). Variant V64F K65G G102I gave 50 µM (1 of 3 replicates). For G50T K65I Y108F, the assay gave nd (0 of 3 replicates).

With M34E V64W K65I the result was nd (0 of 3 replicates). With I58Y K65M Y105N the result was 74 nM (3 of 3 replicates). With K65I the result was 12 µM (3 of 3 replicates). For G56Y K65I F106N, the assay gave 49 nM (3 of 3 replicates). Variant K65C R101F G104T gave 42 µM (2 of 3 replicates). Variant K65P G103K Y108F gave 67 µM (2 of 3 replicates). With G59W K65Q G102Q the result was nd (0 of 3 replicates).

With M34H K65Q G102K the result was 150 µM (2 of 3 replicates). With K65P G102Y the result was nd (0 of 3 replicates). With N54F S55P K65N the result was 260 µM (1 of 3 replicates). Variant G26A Y32C K65Q showed 2.3 µM (1 of 3 replicates). For Y60K K65M G103P, the assay gave 9.4 µM (2 of 3 replicates). Variant A61H K65P Y105S gave 73 µM (1 of 3 replicates). For G56V K65L V99A, the assay gave 320 µM (2 of 3 replicates).

For S63G K65T Y105W, the assay gave 870 nM (1 of 3 replicates). Variant Y60R K65M G104F gave nd (0 of 3 replicates). Variant D31Q S57T K65W showed 510 µM (1 of 3 replicates). With F27Y K65E G104W the result was nd (0 of 3 replicates). With G26Y W53T K65V the result was 22 nM (3 of 3 replicates). With Y60C K65T G103M the result was 160 µM (2 of 3 replicates). For K65A, the assay gave 150 nM (3 of 3 replicates).

For S55E V64F K65G, the assay gave 240 µM (3 of 3 replicates). Variant S52P A61I K65E showed nd (0 of 3 replicates). For G26C N54M K65Y, the assay gave 810 nM (1 of 3 replicates). Variant A61P K65R Y108I showed 6.9 µM (1 of 3 replicates). With D31Q K65S G104W the result was 8.2 µM (1 of 3 replicates). For S57R K65P, the assay gave nd (0 of 3 replicates). Variant K65R gave 120 µM (2 of 3 replicates).

For Y32V M34R K65D, the assay gave 160 µM (1 of 3 replicates). For A33S K65C, the assay gave 58 µM (1 of 3 replicates). Variant K65F G104F D107P gave nd (0 of 3 replicates).

A selection of 6 entries from above:

| changes | apparent Kd | replicates with signal |
|---|---|---|
| G56V K65L V99A | 320 µM | 2/3 |
| G59K V64M K65N | 97 µM | 3/3 |
| A61P K65R Y108I | 6.9 µM | 1/3 |
| Y32V M34R K65D | 160 µM | 1/3 |
| K65F G104F D107P | nd | 0/3 |
| K65A | 150 nM | 3/3 |

Empty control strains, which show no peptide, gave a signal in 21% of pairings with library AAYL51; the median was 34 µM and 95% of these signals were weaker than 1.8 µM. No background was subtracted.
In this assay the parent's reference entry averaged 72 nM; its copy inside this library read 7.5 nM.